Patent publication US20060047261A1, “Intra-arterial catheter for drug delivery” (priority 2004, published 2006)

System: New Zealand White rabbits
Conditions: for Silence Duration: N = 9; for % Δ-CLD (%-change in CLD from baseline) / % Δ-ILD (%-change in ILD from baseline): baseline = 100

## CCCC(C)C1(CC)C(=O)NC(=S)NC1=O (stereo not shown) [pentothal]
Pentothal + Arrest
  Post-silence recovery time: 85 ± 27 s
  Total Recovery Time: 291 ± 60 s
Pentothal + Arrest: 3 mg intracarotid during esmolol/adenosine flow arrest
  Silence Duration: 206 ± 46 s
Pentothal + Arrest, Drug
  CLD Flow: 41 ± 21 PU
  Heart Rate: 125 ± 19 bpm
  ILD Flow: 33±11 PU
  MAP: 26 ± 2 mm Hg
  % Δ-CLD (%-change in CLD from baseline): 36 ± 9 %
  % Δ-ILD (%-change in ILD from baseline): 20-30% and 27 ± 8 %
Pentothal + Arrest, Recovery
  CLD Flow: 106 ± 34 PU
  Heart Rate: 258 ± 44 bpm
  ILD Flow: 161 ± 81 PU
  MAP: 91 ± 14 mm Hg
  % Δ-CLD (%-change in CLD from baseline): 100 ± 32%
  % Δ-ILD (%-change in ILD from baseline): 124 ± 33%
Pentothal-1 (before arrest)
  Post-silence recovery time: 81 ± 27 s
  Total Recovery Time: 126 ± 29 s
Pentothal-1: 3 mg intracarotid before flow arrest
  Silence Duration: 45 ± 5 s and 46 ± 5 s
Pentothal-1, Drug
  CLD Flow: 111 ± 50 PU
  Heart Rate: 262 ± 36 bpm
  ILD Flow: 147 ± 83 PU
  MAP: 94 ± 17 mm Hg
  % Δ-CLD (%-change in CLD from baseline): 106 ± 38 %
  % Δ-ILD (%-change in ILD from baseline): 106 ± 51 %
Pentothal-1, Recovery
  CLD Flow: 93 ± 23 PU
  Heart Rate: 241 ± 29 bpm
  ILD Flow: 140 ± 66 PU
  MAP: 102 ± 7 mm Hg
  % Δ-CLD (%-change in CLD from baseline): 94 ± 19%
  % Δ-ILD (%-change in ILD from baseline): 101 ± 29%
Pentothal-2 (after arrest)
  Post-silence recovery time: 94 ± 55 s
  Total Recovery Time: 161 ± 71 s
Pentothal-2: 3 mg intracarotid after flow arrest
  Silence Duration: 67 ± 27 s
Pentothal-2, Drug
  CLD Flow: 118 ± 41 PU
  Heart Rate: 254 ± 20 bpm
  ILD Flow: 140 ± 55 PU
  MAP: 91 ± 21 mm Hg
  % Δ-CLD (%-change in CLD from baseline): 112 ± 26 %
  % Δ-ILD (%-change in ILD from baseline): 104 ± 30 %
Pentothal-2, Recovery
  CLD Flow: 89 ± 38 PU
  Heart Rate: 268 ± 22 bpm
  ILD Flow: 129 ± 68 PU
  MAP: 99 ± 11 mm Hg
  % Δ-CLD (%-change in CLD from baseline): 83 ± 22%
  % Δ-ILD (%-change in ILD from baseline): 92 ± 38%
pentothal+arrest vs. pentothal-1 and 2
  prolongation in the duration of electrocerebral silence: 3-5 folds

Where “and” joins values, the source holds several entries; their conditions need not be identical. Equal entries are not always repeated. Where two headings read alike, the source gives them in different places.
